Measured values from US7994211B2, “Bicyclo[2.2.1]hept-7-ylamine derivatives and their uses” (Argenta Discovery Limited, priority 2005, dated 2011).

The chains behind the UniProt entries cited, without tags or fusion partners.
UniProt P20309, whole entry, looked up: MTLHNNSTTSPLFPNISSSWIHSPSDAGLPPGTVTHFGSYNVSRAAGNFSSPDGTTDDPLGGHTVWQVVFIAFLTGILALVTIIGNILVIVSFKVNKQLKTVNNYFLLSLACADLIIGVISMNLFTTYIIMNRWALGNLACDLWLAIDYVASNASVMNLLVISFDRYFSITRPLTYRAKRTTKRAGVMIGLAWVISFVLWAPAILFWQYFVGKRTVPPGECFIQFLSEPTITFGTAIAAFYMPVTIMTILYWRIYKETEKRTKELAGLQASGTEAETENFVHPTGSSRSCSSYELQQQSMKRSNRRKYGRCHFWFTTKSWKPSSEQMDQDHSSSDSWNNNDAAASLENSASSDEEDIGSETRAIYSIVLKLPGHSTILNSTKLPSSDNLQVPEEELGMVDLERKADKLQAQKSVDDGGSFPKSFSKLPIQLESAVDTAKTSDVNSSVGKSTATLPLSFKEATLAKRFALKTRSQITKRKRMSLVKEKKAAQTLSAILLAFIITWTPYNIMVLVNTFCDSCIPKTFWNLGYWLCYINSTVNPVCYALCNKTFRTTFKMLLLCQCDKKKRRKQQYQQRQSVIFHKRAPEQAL

Each compound was assayed against human muscarinic receptors (M3) (Homo sapiens, UniProt P20309) (assay: Muscarinic receptor radioligand binding assay ([3H]-NMS)).
Work on `C[N+](C)(C1Cc2ccccc2C1)C1C2CCC1C(OC(=O)C(O)(c1cccs1)c1cccs1)C2` (stereo not shown) yielded a Ki of under 1 nM. `C[N+](C)(CCCOc1ccccc1)C1C2CCC1C(OC(=O)C(O)(c1ccccc1)c1ccccc1)C2` (stereo not shown) was tested, and the Ki was under 1 nM. Work on `C[N+](C)(CCOCc1ccccc1)C1C2CCC1C(OC(=O)C(O)(c1cccs1)c1cccs1)C2` (stereo not shown) yielded a Ki of under 1 nM. Work on `C[N+](C)(C)C1C2CCC1C(OC(=O)C(O)(c1cccs1)c1cccs1)C2` (stereo not shown) yielded a Ki of under 1 nM. With `C[N+](C)(Cc1ccccc1)C1C2CCC1C(OC(=O)C(O)(c1cccs1)c1cccs1)C2` (stereo not shown) the Ki was over 10 nM. In the case of `C[N+]1(C2C3CCC2C(OC(=O)C(O)(c2cccs2)c2cccs2)C3)CCC(c2ccccc2)CC1` (stereo not shown), the Ki is reported as over 10 nM. `C[N+](C)(CCc1ccccc1)C1C2CCC1C(OC(=O)C(O)(c1cccs1)c1cccs1)C2` (stereo not shown) showed a Ki of under 1 nM. Work on `C[N+](C)(CCCOc1ccccc1)C1C2CCC1C(OC(=O)C(O)(c1cccs1)c1cccs1)C2` (racemic) yielded a Ki of under 1 nM. With `C[N+]1(C2C3CCC2C(OC(=O)C(O)(c2ccccc2)c2ccccc2)C3)CCC(Cc2ccccc2)CC1` (stereo not shown) the Ki was over 10 nM. `C[N+](C)(CCCCc1ccccc1)C1C2CCC1C(OC(=O)C(O)(c1cccs1)c1cccs1)C2` (stereo not shown) was tested, and the Ki was under 1 nM. Work on `C[N+](C)(CCC1CCOCC1)C1C2CCC1C(OC(=O)C(O)(c1cccs1)c1cccs1)C2` (stereo not shown) yielded a Ki of 1 to 10 nM. Compound `C[N+](C)(CC(=O)NCc1ccccc1)C1C2CCC1C(OC(=O)C(O)(c1cccs1)c1cccs1)C2` (stereo not shown) has a Ki of under 1 nM. Work on `C[N+](C)(CCCc1ccccc1)C1C2CCC1C(OC(=O)C(O)(c1cccs1)c1cccs1)C2` (racemic) yielded a Ki of under 1 nM. `C[N+](C)(CCCOc1ccccc1)C1C2CCC1C(OC(=O)C1(O)c3ccccc3Oc3ccccc31)C2` (stereo not shown) was tested, and the Ki was under 1 nM. With `C[N+](C)(CCc1ccc2c(c1)CCO2)C1C2CCC1C(OC(=O)C(O)(c1cccs1)c1cccs1)C2` (stereo not shown) the Ki was under 1 nM. With `C[N+](C)(CCCc1ccccc1)C1C2CCC1C(OC(=O)C(O)(c1cccs1)c1cccs1)C2` (stereo not shown) the Ki was under 1 nM.
